Results on 48 substances are retold here after publication PMC8532158.

Common to all, as to experiment: yeast surface display affinity sorting with deep sequencing, enrichments normalized to ddG of purified proteins
For assay [1], the target named is bovine alpha-chymotrypsin (Bos taurus) (UniProt P00766).
Assay [2] has as its target bovine trypsin (Bos taurus) (UniProt P00760).
Assay [3] has as its target human mesotrypsin (Homo sapiens) (UniProt P35030).

Turning to K15V (from UniProt P00974), the ddG is 4.16 kcal/mol in assay [1], 10.3 kcal/mol in assay [2] and 1.82 kcal/mol in assay [3].

Turning to K15W (from UniProt P00974), the ddG in assay [1] was -1.45 kcal/mol; in assay [2], 8.74 kcal/mol; in assay [3], 1.7 kcal/mol.

Take K15Y (from UniProt P00974): the ddG in assay [1] was -2.6 kcal/mol; in assay [2], 8.96 kcal/mol; in assay [3], 1.64 kcal/mol.

P13A (from UniProt P00974): the ddG is 0.714 kcal/mol in assay [1], 3.77 kcal/mol in assay [2] and -0.226 kcal/mol in assay [3].

Regarding P13C (from UniProt P00974), the figures for the ddG in assay [1], in assay [2] and in assay [3] were 0.795 kcal/mol, 7.04 kcal/mol and 1.05 kcal/mol, respectively.

Consider P13D (from UniProt P00974), for which the ddG in assay [1] was 1 kcal/mol; in assay [2], 4.31 kcal/mol; in assay [3], -0.0265 kcal/mol.

As to P13E (from UniProt P00974), the ddG in assay [1] turned out to be 0.949 kcal/mol; in assay [2], 4.4 kcal/mol; in assay [3] it was 0.427 kcal/mol.

Turning to P13F (from UniProt P00974), the ddG was -0.761 kcal/mol in assay [1], 0.452 kcal/mol in assay [2] and -0.321 kcal/mol in assay [3].

As to P13G (from UniProt P00974), the values for the ddG in assay [1], in assay [2] and in assay [3] were 0.818 kcal/mol, 4.27 kcal/mol and 1.09 kcal/mol, respectively.

As to P13H (from UniProt P00974), the ddG was 0.231 kcal/mol in assay [1], 3.54 kcal/mol in assay [2] and -0.0312 kcal/mol in assay [3].

In the case of P13I (from UniProt P00974), the ddG in assay [1] was -0.938 kcal/mol; in assay [2], 1.83 kcal/mol; in assay [3], 0.0616 kcal/mol.

For P13K (from UniProt P00974), the ddG in assay [1] stood at 0.0266 kcal/mol; in assay [2] it was 3.05 kcal/mol; in assay [3], 1.49 kcal/mol.

In the case of P13L (from UniProt P00974), the ddG in assay [1] was -0.922 kcal/mol; in assay [2], 2.75 kcal/mol; in assay [3], -0.15 kcal/mol.

As for P13M (from UniProt P00974), the ddG in assay [1] is -0.983 kcal/mol; in assay [2], 0.628 kcal/mol; in assay [3], 0.00615 kcal/mol.

Turning to P13N (from UniProt P00974), the ddG in assay [1] was 0.482 kcal/mol; in assay [2], 3.64 kcal/mol; in assay [3] it was 0.38 kcal/mol.

With P13Q (from UniProt P00974), the figures for the ddG in assay [1], in assay [2] and in assay [3] were -0.0474 kcal/mol, 2.75 kcal/mol and -0.254 kcal/mol, respectively.

In the case of P13R (from UniProt P00974), the ddG was 0.0323 kcal/mol in assay [1], 1.53 kcal/mol in assay [2] and -0.139 kcal/mol in assay [3].

With P13S (from UniProt P00974), the ddG in assay [1] was 0.828 kcal/mol; in assay [2], 4.04 kcal/mol; in assay [3], 0.249 kcal/mol.

Take P13T (from UniProt P00974): the ddG is 0.601 kcal/mol in assay [1], 4.01 kcal/mol in assay [2] and 1.06 kcal/mol in assay [3].

Regarding P13V (from UniProt P00974), the results for the ddG in assay [1], in assay [2] and in assay [3] were -0.619 kcal/mol, 1.68 kcal/mol and -0.808 kcal/mol, respectively.

As to P13W (from UniProt P00974), the figures for the ddG in assay [1], in assay [2] and in assay [3] were -0.0865 kcal/mol, 1.08 kcal/mol and -0.751 kcal/mol, respectively.

For the substance P13Y (from UniProt P00974), the ddG was -0.889 kcal/mol in assay [1], 1.08 kcal/mol in assay [2] and -0.296 kcal/mol in assay [3].

Turning to R17A (from UniProt P00974), the ddG was 0.809 kcal/mol in assay [1], 2.18 kcal/mol in assay [2] and -1.54 kcal/mol in assay [3].

In the case of R17C (from UniProt P00974), the ddG is 0.744 kcal/mol in assay [1], 3.97 kcal/mol in assay [2] and -1.5 kcal/mol in assay [3].

Consider R17D (from UniProt P00974), for which the ddG in assay [1] is 4.13 kcal/mol; in assay [2], 4.77 kcal/mol; in assay [3], 0.603 kcal/mol.

With R17E (from UniProt P00974), the ddG in assay [1] came out at 4.39 kcal/mol; in assay [2] it was 5.11 kcal/mol; in assay [3] it was 1.85 kcal/mol.

R17F (from UniProt P00974): the ddG is 0.0498 kcal/mol in assay [1], 3.03 kcal/mol in assay [2] and -1.67 kcal/mol in assay [3].

Regarding R17G (from UniProt P00974), the ddG was 3.41 kcal/mol in assay [1], 4.16 kcal/mol in assay [2] and -1.77 kcal/mol in assay [3].

For the substance R17H (from UniProt P00974), the ddG is 0.585 kcal/mol in assay [1], 3.47 kcal/mol in assay [2] and -1.07 kcal/mol in assay [3].

On to R17I (from UniProt P00974), for which the ddG is 0.461 kcal/mol in assay [1], 1.21 kcal/mol in assay [2] and 1.62 kcal/mol in assay [3].

Turning to R17K (from UniProt P00974), the ddG in assay [1] worked out at 0.709 kcal/mol; in assay [2], 4.11 kcal/mol; in assay [3] it was 0.0179 kcal/mol.

R17L (from UniProt P00974): the ddG in assay [1] was -0.217 kcal/mol; in assay [2], -0.314 kcal/mol; in assay [3], -1.42 kcal/mol.

Regarding R17M (from UniProt P00974), the ddG was -0.294 kcal/mol in assay [1], -0.0474 kcal/mol in assay [2] and -1.29 kcal/mol in assay [3].

As for R17N (from UniProt P00974), the ddG in assay [1] is 1.27 kcal/mol; in assay [2], 3.19 kcal/mol; in assay [3], -0.199 kcal/mol.

Consider R17P (from UniProt P00974), for which the ddG in assay [1] stood at 4.36 kcal/mol; in assay [2], 9.82 kcal/mol; in assay [3], 1.52 kcal/mol.

Consider R17Q (from UniProt P00974), for which the ddG is 2.66 kcal/mol in assay [1], 3.69 kcal/mol in assay [2] and -0.108 kcal/mol in assay [3].

With R17S (from UniProt P00974), the values for the ddG in assay [1], in assay [2] and in assay [3] were 0.924 kcal/mol, 3.17 kcal/mol and -1 kcal/mol, respectively.

For the substance R17T (from UniProt P00974), the ddG in assay [1] is 3.54 kcal/mol; in assay [2] it was 3.88 kcal/mol; in assay [3], 0.484 kcal/mol.

For the substance R17V (from UniProt P00974), the results for the ddG in assay [1], in assay [2] and in assay [3] were 2 kcal/mol, 2.33 kcal/mol and 0.495 kcal/mol, respectively.

As for R17W (from UniProt P00974), the ddG was 0.579 kcal/mol in assay [1], 4.74 kcal/mol in assay [2] and -1.41 kcal/mol in assay [3].

As for R17Y (from UniProt P00974), the ddG in assay [1] was 0.227 kcal/mol; in assay [2] it was 2.78 kcal/mol; in assay [3], -1.79 kcal/mol.

With R39A (from UniProt P00974), the ddG in assay [1] was 0.507 kcal/mol; in assay [2], 2.45 kcal/mol; in assay [3], 0.663 kcal/mol.

As for R39C (from UniProt P00974), the ddG in assay [1] amounted to 0.962 kcal/mol; in assay [2] it was 6.25 kcal/mol; in assay [3] it was 0.872 kcal/mol.

Consider R39D (from UniProt P00974), for which the figures for the ddG in assay [1], in assay [2] and in assay [3] were 2.52 kcal/mol, 5.43 kcal/mol and 1.89 kcal/mol, respectively.

In the case of R39E (from UniProt P00974), the ddG was found to be 2.96 kcal/mol in assay [1], 6.12 kcal/mol in assay [2] and 1.79 kcal/mol in assay [3].

As to R39F (from UniProt P00974), the ddG is 0.16 kcal/mol in assay [1], 2.67 kcal/mol in assay [2] and -0.392 kcal/mol in assay [3].

In the case of R39G (from UniProt P00974), the results for the ddG in assay [1], in assay [2] and in assay [3] were 0.361 kcal/mol, 2.29 kcal/mol and 0.681 kcal/mol, respectively.

Consider R39H (from UniProt P00974), for which the ddG in assay [1] is -0.917 kcal/mol; in assay [2] it was 2.88 kcal/mol; in assay [3], -1.06 kcal/mol.
